Our source for the inhibition values is patent US9150579B2, “Selective PI3K delta inhibitors” (Rhizen Pharmaceuticals SA, priority 2012, dated 2015).

Protein sequences, listed by entry. Tags and fused reporters are not part of them. Lines headed by an entry give the natural chain unless they say otherwise; changes in a name come on top.
UniProt P42338: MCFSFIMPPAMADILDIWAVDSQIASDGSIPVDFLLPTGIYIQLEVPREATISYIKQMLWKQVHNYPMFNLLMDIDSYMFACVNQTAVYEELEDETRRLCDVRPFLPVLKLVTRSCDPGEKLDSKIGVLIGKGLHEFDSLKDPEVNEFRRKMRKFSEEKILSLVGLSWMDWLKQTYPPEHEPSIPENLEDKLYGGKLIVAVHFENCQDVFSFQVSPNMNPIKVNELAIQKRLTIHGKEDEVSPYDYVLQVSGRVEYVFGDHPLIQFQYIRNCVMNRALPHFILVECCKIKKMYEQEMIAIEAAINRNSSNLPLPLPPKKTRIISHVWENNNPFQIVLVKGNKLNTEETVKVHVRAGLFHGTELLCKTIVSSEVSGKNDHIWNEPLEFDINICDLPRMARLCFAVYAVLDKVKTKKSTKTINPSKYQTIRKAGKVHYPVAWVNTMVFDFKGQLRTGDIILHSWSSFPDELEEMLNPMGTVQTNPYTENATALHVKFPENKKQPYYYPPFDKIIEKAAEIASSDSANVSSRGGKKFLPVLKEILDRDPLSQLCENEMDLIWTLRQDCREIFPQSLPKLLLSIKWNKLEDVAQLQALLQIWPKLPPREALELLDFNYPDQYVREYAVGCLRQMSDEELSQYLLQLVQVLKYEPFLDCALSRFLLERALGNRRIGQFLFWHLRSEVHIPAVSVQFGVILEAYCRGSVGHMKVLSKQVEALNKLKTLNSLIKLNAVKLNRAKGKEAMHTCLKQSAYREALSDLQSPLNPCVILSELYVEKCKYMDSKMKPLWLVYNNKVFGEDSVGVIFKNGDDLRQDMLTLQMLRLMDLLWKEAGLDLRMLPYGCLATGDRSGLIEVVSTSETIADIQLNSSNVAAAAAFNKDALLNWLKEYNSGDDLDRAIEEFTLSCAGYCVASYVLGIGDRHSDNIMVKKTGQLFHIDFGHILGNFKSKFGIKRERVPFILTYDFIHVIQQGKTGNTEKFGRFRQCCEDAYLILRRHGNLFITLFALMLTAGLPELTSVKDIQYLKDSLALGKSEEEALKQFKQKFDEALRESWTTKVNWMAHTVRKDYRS
UniProt P42336, whole entry: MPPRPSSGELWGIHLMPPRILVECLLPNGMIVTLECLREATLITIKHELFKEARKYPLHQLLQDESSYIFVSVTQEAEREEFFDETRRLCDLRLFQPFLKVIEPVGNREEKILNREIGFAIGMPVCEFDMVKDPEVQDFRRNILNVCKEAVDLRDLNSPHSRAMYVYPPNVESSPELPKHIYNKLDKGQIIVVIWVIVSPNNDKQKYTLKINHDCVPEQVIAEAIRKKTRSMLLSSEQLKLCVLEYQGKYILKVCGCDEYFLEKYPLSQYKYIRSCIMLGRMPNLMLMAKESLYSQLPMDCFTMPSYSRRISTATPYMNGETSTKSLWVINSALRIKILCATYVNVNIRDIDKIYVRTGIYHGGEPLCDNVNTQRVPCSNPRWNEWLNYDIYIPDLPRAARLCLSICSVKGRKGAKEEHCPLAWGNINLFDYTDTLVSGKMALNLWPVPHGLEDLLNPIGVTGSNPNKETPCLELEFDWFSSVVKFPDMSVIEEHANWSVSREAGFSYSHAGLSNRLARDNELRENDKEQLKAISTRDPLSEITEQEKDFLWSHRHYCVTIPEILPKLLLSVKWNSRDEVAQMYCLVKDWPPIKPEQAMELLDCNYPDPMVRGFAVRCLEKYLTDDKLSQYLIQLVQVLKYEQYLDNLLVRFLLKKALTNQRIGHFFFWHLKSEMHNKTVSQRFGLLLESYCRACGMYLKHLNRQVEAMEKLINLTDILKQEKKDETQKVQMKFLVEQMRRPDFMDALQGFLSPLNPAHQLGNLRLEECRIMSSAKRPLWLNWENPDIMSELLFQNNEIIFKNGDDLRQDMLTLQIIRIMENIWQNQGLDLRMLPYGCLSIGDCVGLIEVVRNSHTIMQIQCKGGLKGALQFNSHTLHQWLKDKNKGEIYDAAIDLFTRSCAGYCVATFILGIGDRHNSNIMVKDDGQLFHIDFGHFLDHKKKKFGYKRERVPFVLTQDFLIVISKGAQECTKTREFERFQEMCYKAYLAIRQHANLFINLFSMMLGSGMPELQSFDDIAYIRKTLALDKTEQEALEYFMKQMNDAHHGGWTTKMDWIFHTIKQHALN
UniProt P48736: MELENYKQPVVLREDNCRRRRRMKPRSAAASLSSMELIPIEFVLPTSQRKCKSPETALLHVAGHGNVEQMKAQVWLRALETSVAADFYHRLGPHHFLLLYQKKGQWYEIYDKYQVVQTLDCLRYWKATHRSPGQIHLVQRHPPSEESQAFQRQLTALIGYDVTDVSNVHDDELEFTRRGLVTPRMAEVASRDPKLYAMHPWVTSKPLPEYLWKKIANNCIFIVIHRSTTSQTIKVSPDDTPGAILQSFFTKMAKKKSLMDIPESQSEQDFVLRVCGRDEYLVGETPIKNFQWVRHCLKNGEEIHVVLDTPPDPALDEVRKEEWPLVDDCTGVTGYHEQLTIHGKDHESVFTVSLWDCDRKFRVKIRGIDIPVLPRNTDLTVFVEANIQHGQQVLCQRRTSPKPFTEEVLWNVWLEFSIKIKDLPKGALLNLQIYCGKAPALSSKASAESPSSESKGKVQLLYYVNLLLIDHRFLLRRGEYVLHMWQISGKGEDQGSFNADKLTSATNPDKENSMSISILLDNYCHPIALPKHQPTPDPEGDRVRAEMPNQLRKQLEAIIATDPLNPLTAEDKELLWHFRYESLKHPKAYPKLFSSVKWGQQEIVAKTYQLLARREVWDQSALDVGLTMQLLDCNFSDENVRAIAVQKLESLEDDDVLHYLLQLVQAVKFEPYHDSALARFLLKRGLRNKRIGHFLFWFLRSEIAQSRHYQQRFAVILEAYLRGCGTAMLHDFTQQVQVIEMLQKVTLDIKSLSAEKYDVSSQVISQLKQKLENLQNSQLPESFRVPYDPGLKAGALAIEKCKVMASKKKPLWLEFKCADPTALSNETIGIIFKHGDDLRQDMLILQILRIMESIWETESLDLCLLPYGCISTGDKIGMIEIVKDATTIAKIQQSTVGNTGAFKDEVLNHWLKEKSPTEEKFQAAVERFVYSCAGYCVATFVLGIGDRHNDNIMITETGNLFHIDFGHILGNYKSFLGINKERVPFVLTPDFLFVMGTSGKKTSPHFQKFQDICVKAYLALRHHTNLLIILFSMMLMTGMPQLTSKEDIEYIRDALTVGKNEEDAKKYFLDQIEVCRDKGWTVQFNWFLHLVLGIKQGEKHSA

Holding throughout (format): biochemical
One experiment addresses PI3K β (Homo sapiens (Human), UniProt P42338). Put plainly: Assay 1: Fluorescent (HTRF) determination of PI3K enzyme activity, beta. On the procedure:
(§1) The homogenous time resolved fluorescence (HTRF) assay allows detection of 3,4,5-triphosphate (PIP3) formed as a result of phosphorylation of phosphotidylinositol 4,5-biphosphate (PIP2) by PI3K isoforms such as α, β, γ or δ.
(§2) PI3K isoform activity for α, β, γ or δ was determined using a PI3K human HTRF™ Assay Kit (Millipore, Billerica, Mass.) with modifications. All incubations were carried out at room temperature. […] After the initial incubation, 5 μl/well of 400 μM ATP was added and incubated for an additional 30 minutes. Reaction was terminated by adding 5 μl/well stop solution (Millipore, Billerica, Mass.). Five microliters of detection mix (Millipore, Billerica, Mass.) were then added to each well and was incubated for 6-18 h in the dark.
In general terms: TR-FRET usually uses a lanthanide donor and a delayed reading to cut background.

A further experiment addresses PI3K α (Homo sapiens (Human), UniProt P42336). The experiment in a line: Assay 1: Fluorescent (HTRF) determination of PI3K enzyme activity, alpha. The protocol:
as §1, §2

The target in a further experiment is PI3K γ (Homo sapiens (Human), UniProt P48736). Put plainly: Assay 1: Fluorescent (HTRF) determination of PI3K enzyme activity, gamma. The protocol:
as §1, §2

On to `CC(C)Oc1ccc(-c2nn([C@@H](C)c3oc4ccc(F)cc4c(=O)c3-c3cccc(F)c3)c3ncnc(N)c23)cc1F` [Compound B1, (S)-2-(1-(4-amino-3-(3-fluoro-4-isopropoxyphenyl)-1H-pyrazolo[3,4-d]pyrimidin-1-yl)ethyl)-6-fluoro-3-(3-fluorophenyl)-4H-chromen-4-one], for which the inhibition at 1 µM at PI3K β came out at 44.9%; against PI3K α it was 19.1%; on PI3K γ, 47.2%.

For `CC(C)Oc1ccc(-c2nn([C@H](C)c3oc4ccc(F)cc4c(=O)c3-c3cccc(F)c3)c3ncnc(N)c23)cc1F` [Compound B2, (R)-2-(1-(4-amino-3-(3-fluoro-4-isopropoxyphenyl)-1H-pyrazolo[3,4-d]pyrimidin-1-yl)ethyl)-6-fluoro-3-(3-fluorophenyl)-4H-chromen-4-one], the inhibition at 1 µM on PI3K β is 52%; against PI3K α, 25.3%; against PI3K γ, 68.1%.

Regarding `CC(C)Oc1ccc(-c2nn(C(C)c3oc4ccc(F)cc4c(=O)c3-c3cccc(F)c3)c3ncnc(N)c23)cc1F` (racemic) [Compound B, 2-(1-(4-amino-3-(3-fluoro-4-isopropoxyphenyl)-1H-pyrazolo[3,4-d]pyrimidin-1-yl)ethyl)-6-fluoro-3-(3-fluorophenyl)-4H-chromen-4-one], the results for the inhibition at 1 µM at PI3K β, against PI3K α and against PI3K γ were 18%, 37.9% and 18.3%, respectively.

As a reminder, the inhibition is the share of the control response that was lost under treatment.
